Data taken from PubChem BioAssay AID720504 (National Center for Advancing Translational Sciences (NCATS), 2013).
This is a selection; strong and weak results do not stand in their true shares. Results filed as inconclusive are left out. Some salts or complexes appear as unconnected parts, following the source record. Active and inactive are the calls of the source. The call rests on the fitted dose curve; in most records, active means well fitted inhibition curve with a large enough effect; inconclusive means small, poorly fitted or top-dose-only effect; inactive means flat fitted curve, though single readings scatter.

The chains behind the UniProt entries cited, without tags or fusion partners.
UniProt P53350, whole entry: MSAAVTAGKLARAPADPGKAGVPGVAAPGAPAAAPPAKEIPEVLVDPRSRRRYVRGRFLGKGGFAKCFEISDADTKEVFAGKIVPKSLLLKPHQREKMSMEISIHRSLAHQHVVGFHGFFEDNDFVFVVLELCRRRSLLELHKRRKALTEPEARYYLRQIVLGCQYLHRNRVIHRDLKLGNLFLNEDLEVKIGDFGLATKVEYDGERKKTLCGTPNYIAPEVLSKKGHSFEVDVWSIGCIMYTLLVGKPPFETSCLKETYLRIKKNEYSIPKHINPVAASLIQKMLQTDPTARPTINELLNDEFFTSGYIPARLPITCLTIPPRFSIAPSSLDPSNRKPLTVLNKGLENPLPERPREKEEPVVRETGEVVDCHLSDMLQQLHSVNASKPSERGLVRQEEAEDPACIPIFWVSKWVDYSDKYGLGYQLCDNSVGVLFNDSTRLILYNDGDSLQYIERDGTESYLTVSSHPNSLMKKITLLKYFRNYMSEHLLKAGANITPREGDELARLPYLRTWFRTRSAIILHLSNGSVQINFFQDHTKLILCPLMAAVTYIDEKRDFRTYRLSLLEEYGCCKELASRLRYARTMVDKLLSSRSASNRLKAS

molecular target: Serine/threonine-protein kinase PLK1 (Homo sapiens) (UniProt P53350); assay: qHTS for Inhibitors of PLK1-PDB (polo-like kinase 1 - polo-box domain): Primary Screen; conditions: Plk1 PBD binding of FITC phosphopeptide, fluorescence polarization; further: nearly all actives have a fitted effect of over 65% in size; on max response, negative = inhibition: series mostly up to about 57 µM
On the % scale 0 is the no-effect control and ±100 the full control effect; potency means the concentration at half of the fitted maximal effect.

Compound | max response, negative = inhibition | Potency
CN1CCN(CCOC(=O)C(O)(c2ccccc2)c2ccccc2)CC1 | inactive: -6.8% | 
CC(C)(C)n1nnnc1C(c1ccccc1OC(F)(F)F)N1CCC(n2c(=O)[nH]c3ccccc32)CC1 (centres undefined) | inactive: -6.98% | 
O=C(NCC1(N2CCCCC2)CCCCC1)c1ccc(OC(F)F)cc1 | inactive: -1.15% | 
CCN1CCC(Nc2ccc(Cl)cc2)CC1 | inactive: 5.6% | 
N#CC1(Nc2ccccc2)CCN(CCc2ccccc2)CC1 | inactive: -3.52% | 
O=c1[nH]c2ccccc2n1C1CCN(C(c2ccccc2OC(F)(F)F)c2nnnn2C2CCCC2)CC1 (centres undefined) | inactive: 4.64% | 
O=C(NCC1(N2CCCCC2)CCCCC1)c1cccc([N+](=O)[O-])c1 | inactive: -10.6% | 
CSc1ccc(C(=O)NCC2(N3CCOCC3)CCCCC2)cc1 | inactive: -14.4% | 
O=C(OC1CN2CCC1CC2)c1ccc([N+](=O)[O-])cc1 (centres undefined) | inactive: 0.121% | 
COc1ccc2c(c1O)-c1c(O)c(OC)cc3c1[C@H](C2)[N+](C)(C)CC3.O=[N+]([O-])c1cc([N+](=O)[O-])c([O-])c([N+](=O)[O-])c1[O-] | inactive: -3.36% | 
O=C(NCC1(N2CCCCC2)CCCCC1)c1cncc(Br)c1 | inactive: -7.25% | 
CN1CCC(Nc2cccc(F)c2)CC1 | inactive: 1.5% | 
COc1ccc(C(c2nnnn2C2CCCC2)N2CCC(n3c(=O)[nH]c4ccccc43)CC2)cc1 (centres undefined) | inactive: 5% | 
O=[N+]([O-])c1cc([N+](=O)[O-])c(Nc2ccc(Cl)cc2)c([N+](=O)[O-])c1 | inactive: -12.6% | 
Cc1ccc(C(=O)NCC2(N(C)C)CCCCC2)o1 | inactive: 2.53% | 
CCCOc1ccc(C(=O)NCC2(N(C)C)CCCCC2)cc1OC | inactive: -15.9% | 
CCCCn1nnnc1C(c1ccccc1OC(F)(F)F)N1CCC(n2c(=O)[nH]c3ccccc32)CC1 (centres undefined) | inactive: 1.39% | 
CC(C)c1ccc(NC2CCN(C(=O)OC(C)(C)C)CC2)cc1 | inactive: 1.77% | 
COc1ccc(CN(CCCl)CCCl)cc1Cl |  | active: 21.2 µM
CN(C)c1cccc(C(=O)NCC2(N3CCCCC3)CCCCC2)c1 | inactive: -0.416% | 

Compound | max response, negative = inhibition | Potency
O=[N+]([O-])c1cc([N+](=O)[O-])c(OC2CCCCC2O)c([N+](=O)[O-])c1 (centres undefined) | inactive: -21.6% | 
COc1cc(OC)c(C(=O)NCC2(N(C)C)CCCCC2)cc1OC | inactive: -16.7% | 
CCC(c1nnnn1C(C)(C)C)N1CCC(n2c(=O)[nH]c3ccccc32)CC1 (centres undefined) | inactive: -1.3% | 
O=C(NCC1(N2CCOCC2)CCCCC1)c1cc(F)c(F)cc1Cl | inactive: 2.21% | 
CCCCn1nnnc1C(c1ccnc2ccccc12)N1CCC(n2c(=O)[nH]c3ccccc32)CC1 (centres undefined) | inactive: -7.76% | 
O=c1[nH]c2ccccc2n1C1CCN(C(c2ccccc2OC(F)(F)F)c2nnnn2C2CCCCC2)CC1 (centres undefined) | inactive: 6.65% | 
O=C(NCC1(N2CCCCC2)CCCCC1)c1ccc(Cl)nc1 | inactive: 2.26% | 
Cc1cc(C)cc(N(C(=O)c2ccccc2)C2CCN(C(=O)OC(C)(C)C)CC2)c1 | inactive: -11.9% | 
O=C(NCC1(N2CCOCC2)CCCCC1)c1cc2ccccc2o1 | inactive: -1.83% | 
O=c1[nH]c2ccccc2n1C1CCN(C(c2cc3ccccc3o2)c2nnnn2C2CCCCC2)CC1 (centres undefined) | inactive: 2.87% | 
O=C(OC1CN2CCC1CC2)C1c2ccccc2Oc2ccccc21 (centres undefined) | inactive: -0.185% | 
O=C(NCC1(N2CCCCC2)CCCCC1)c1ccc(Cl)s1 | inactive: -3.81% | 
N#CC1(Nc2ccccc2)CCN(Cc2ccccc2)CC1 | inactive: -20.7% | 
COc1ccc(Cl)cc1C(=O)NCC1(N2CCOCC2)CCCCC1 | inactive: 6.35% | 
CCOC(=O)N1CCC(Nc2ccc(OC)cc2)CC1 | inactive: -9.44% | 
CCCCn1nnnc1C(c1ccc(OC)cc1)N1CCC(n2c(=O)[nH]c3ccccc32)CC1 (centres undefined) | inactive: -15.9% | 
COc1ccc(C(=O)NCC2(N3CCCCC3)CCCCC2)cc1 | inactive: -6.57% | 
CCC(c1nnnn1C1CCCC1)N1CCC(n2c(=O)[nH]c3ccccc32)CC1 (centres undefined) | inactive: 7.43% | 
CC(C)(C)OC(=O)N1CCC(N(C(=O)c2ccccc2)c2ccc(F)cc2)CC1 | inactive: -3.07% | 
COc1ccc(C(=O)NCC2(N3CCCCC3)CCCCC2)c(OC)c1OC | inactive: 0% | 

Compound | max response, negative = inhibition | Potency
O=C(NCC1(N2CCCCC2)CCCCC1)c1ccc(=O)[nH]c1 | inactive: 0.493% | 
CCCCn1nnnc1C(c1cccs1)N1CCC(n2c(=O)[nH]c3ccccc32)CC1 (centres undefined) | inactive: -14.8% | 
O=C(NCC1(N2CCCCC2)CCCCC1)c1cccs1 | inactive: -5.03% | 
CCCCn1nnnc1C(CC)N1CCC(n2c(=O)[nH]c3ccccc32)CC1 (centres undefined) | inactive: 3.96% | 
CSc1ccccc1C(=O)NCC1(N2CCCCC2)CCCCC1 | inactive: -19.4% | 
Cc1cccc(NC2(C#N)CCN(Cc3ccccc3)CC2)c1 | inactive: 3.59% | 
O=c1[nH]c2ccccc2n1C1CCN(C(c2ccccc2)c2nnnn2C2CCCCC2)CC1 (centres undefined) | inactive: 3.97% | 
COc1cc(C(=O)NCC2(N(C)C)CCCCC2)ccc1OC(F)F | inactive: -15.4% | 
CCOC(=O)N1CCC(Nc2cccc(C)c2)CC1 | inactive: 5.8% | 
O=c1[nH]c2ccccc2n1C1CCN(C(c2cccc3ccccc23)c2nnnn2C2CCCC2)CC1 (centres undefined) | inactive: -0.815% | 
CC(C)(C)n1nnnc1C(c1ccccc1)N1CCC(n2c(=O)[nH]c3ccccc32)CC1 (centres undefined) | inactive: 1.1% | 
O=C1CCN(Cc2ccccc2)CC1 | inactive: -3.86% | 
CCOc1ccc(C)cc1CN(CCCl)CCCl | inactive: -28.7% | 
O=C(NCC1(N2CCCCC2)CCCCC1)c1ccc(F)cc1 | inactive: -5.45% | 
CCCCOc1ccc(C(=O)NCC2(N3CCOCC3)CCCCC2)cc1 | inactive: -11.6% | 
CCCCn1nnnc1C(c1cc2ccccc2o1)N1CCC(n2c(=O)[nH]c3ccccc32)CC1 (centres undefined) | inactive: 0.795% | 
O=P1(N(CCCl)CCCl)SCCCS1 | inactive: -0.641% | 
CCOC(=O)N1CCC(Nc2ccc(F)cc2)CC1 | inactive: 0.899% | 
COc1ccc(NC2CCN(CCc3ccccc3)CC2)c(OC)c1 | inactive: -5.9% | 
